Results on 20 substances are retold here after patent US20240360179A1, “STAPLED PEPTIDES AND METHODS THEREOF” (FOG PHARMACEUTICALS, INC., priority 2021, published 2024).

Amino acid sequences for entries named in this document (tags omitted).
UniProt P35222, whole entry: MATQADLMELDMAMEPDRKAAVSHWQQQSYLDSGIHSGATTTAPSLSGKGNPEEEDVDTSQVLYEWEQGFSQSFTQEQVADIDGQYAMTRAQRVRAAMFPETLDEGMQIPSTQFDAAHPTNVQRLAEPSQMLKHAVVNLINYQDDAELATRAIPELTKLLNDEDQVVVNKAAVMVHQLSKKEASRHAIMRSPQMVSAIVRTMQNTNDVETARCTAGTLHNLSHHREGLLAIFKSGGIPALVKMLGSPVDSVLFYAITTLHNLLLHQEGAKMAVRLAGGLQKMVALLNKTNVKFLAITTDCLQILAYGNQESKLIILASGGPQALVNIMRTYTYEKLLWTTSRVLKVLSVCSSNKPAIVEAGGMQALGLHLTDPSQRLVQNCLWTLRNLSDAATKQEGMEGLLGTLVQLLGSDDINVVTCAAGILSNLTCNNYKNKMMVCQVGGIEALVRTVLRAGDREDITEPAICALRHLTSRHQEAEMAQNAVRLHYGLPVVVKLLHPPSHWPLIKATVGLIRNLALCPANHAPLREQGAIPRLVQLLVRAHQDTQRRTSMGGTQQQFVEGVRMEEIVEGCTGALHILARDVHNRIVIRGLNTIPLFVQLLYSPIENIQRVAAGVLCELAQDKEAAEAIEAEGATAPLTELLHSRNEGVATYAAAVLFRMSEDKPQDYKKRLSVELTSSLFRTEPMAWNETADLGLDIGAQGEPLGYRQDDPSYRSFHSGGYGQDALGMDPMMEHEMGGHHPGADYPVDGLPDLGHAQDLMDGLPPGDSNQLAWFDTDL

Where two headings read alike, the source gives them in different places. Some results are limits rather than exact numbers.

Test [1] deals with beta-catenin/TCF4 interaction (Homo sapiens, UniProt P35222). Format: cell-based. Set-up: host or cells: HEK293. The following applies: read-out: NanoBRET Abs IC50. In general terms: Bioluminescence resonance energy transfer reports proximity on the nanometre scale.
For test [2], the target named is T1, full-length B-Catenin (Uniprot ID P35222) (Homo sapiens, UniProt P35222).
T1 construct: 10 nM full-length B-Catenin (Uniprot ID P35222)
Format: binding. The following applies: competition fluorescence polarization; read-out: beta-Catenin FP IC50. A general note: In fluorescence polarisation assays a small probe gives low polarisation when free and higher when bound to something large.

As a reminder, the IC50 is the concentration at which inhibition is half-maximal. For “Ac-PL3-Asp-DipA-B5-Asp-3COOHF-Phe-Ala-Phe-Lys*3-PyrS2-3Thi-BztA-GlnR*3-Ala-NH2 [I-739]”, the IC50 in test [1] was 1.5 to 3 µM; in test [2], less than 0.05 µM.

Take “Ac-PL3-Asp-Npg-B5-Asp-3COOHF-Aib-Ala-Phe-Lys*3-PyrS2-Cpa-BztA-GlnR*3-Ala-NH2 [I-282]”: the IC50 is 3 to 10 µM in test [1] and less than 0.05 µM in test [2].

As to “Ac-PL3-Asp-nLeu-B5-Asp-3COOHF-Phe-Ala-Phe-Lys*3-PyrS2-3Thi-BztA-GlnR*3-Ala-NH2 [I-842]”, the IC50 in test [1] was 1.5 to 3 µM; in test [2], less than 0.05 µM.

On to “Ac-S5-3COOHF-Asp-DipA-B5-Asp-3COOHF-Aib-Ala-Phe-Lys*3-PyrS1-Phe-34ClF-GlnR*3-NH2 [I-1806]”, for which the results for the IC50 in test [1] and in test [2] were 3 to 10 µM and less than 0.05 µM, respectively.

As to “Ac-PL3-Asp-Npg-B5-Asp-3COOHF-Ala-Ala-Phe-Leu-[Red][NHPent]Dap-3thi-BztA-Ala-GlnR-NH2 [I-1214]”, the figures for the IC50 in test [1] and in test [2] were more than 10 µM and 0.05 to 0.2 µM, respectively.

Regarding “Ac-PL3-Asp-Npg-B5-Asp-3COOHF-Aib-Leu-Phe-Lys*3-PyrS2-3Thi-BztA-GlnR*3-Ala-NH2 [I-450]”, the IC50 in test [1] (absolute IC50) is more than 10 µM; in test [2], less than 0.05 µM.

With “Ac-PL3-Asp-Npg-B5-Asp-3COOHF-Aib-Ala-Phe-1MeK*3-PyrS2-3Thi-BztA-GlnR*3-Ala-NH2 [I-711]”, the half-maximal inhibitory concentration (IC50) in test [1] is 1.5 to 3 µM; in test [2] it was less than 0.05 µM.

For the substance “Ac-PL3-Asp-Npg-B5-Asp-3COOHF-Ala-Ala-Phe-Lys*3-PyrS2-2F3MeF-BztA-AsnR*3-Ala-NH2 [I-59]”, the IC50 is more than 10 µM in test [1] and 0.05 to 0.2 µM in test [2].

Regarding “Ac-PL3-Asp-Npg-B5-Asp-3COOHF-Ala-Ala-Phe-Lys*3-PyrS2-2F3MeF-34ClF-GlnR*3-Ala-NH2 [I-823]”, the values for the IC50 in test [1] and in test [2] were 3 to 10 µM and less than 0.05 µM, respectively.

Turning to “Ac-PL3-Asp-Npg-B5-Asp-3COOHF-Aib-Ala-Phe-Lys*3-Az2-3Thi-BztA-GlnR*3-Ala-NH2 [I-947]”, the results for the IC50 in test [1] and in test [2] were more than 10 µM and less than 0.05 µM, respectively.

On to “Ac-PL3-Asp-Npg-B5-Asp-3COOHF-CyLeu-nLeu-Phe-Lys*3-PyrS2-3Thi-BztA-GlnR*3-Ala-NH2 [I-1017]”, for which the IC50 is more than 10 µM in test [1] and less than 0.05 µM in test [2].

Take “Ac-PL3-Asp-Npg-B5-Asp-3COOHF-Aib-Ala-Phe-Lys*3-PyrS2-2Thi-BztA-GlnR*3-NH2 [I-924]”: the half-maximal inhibitory concentration (IC50) in test [1] was 3 to 10 µM; in test [2] it was less than 0.05 µM.

Take “Ac-PL3-Asp-Npg-B5-Asp-3COOHF-Aib-Ala-Phe-Lys*3-PyrS2-2Thi-34ClF-GlnR*3-Ala-NH2 [I-914]”: the IC50 in test [1] is 3 to 10 µM; in test [2], less than 0.05 µM.

With “Ac-PL3-Asp-Npg-B5-Asp-3COOHF-Aib-Ala-Phe-Lys*3-PyrS2-hLeu-BztA-GlnR*3-Ala-NH2 [I-276]”, the figures for the IC50 in test [1] and in test [2] were 3 to 10 µM and less than 0.05 µM, respectively.

“Ac-PL3-Asp-Npg-B5-Asp-TfeGA-Ala-Ala-Phe-Lys*3-PyrS2-Phe-BztA-GlnR*3-NH2 [I-894]”: the IC50 in test [1] was 3 to 10 µM; in test [2] it was less than 0.05 µM.

Regarding “Ac-S5-Val-Asp-Npg-B5-Asp-3COOHF-Aib-Ala-Phe-Lys*3-PyrS2-3Thi-BztA-GlnR*3-Ala-NH2 [I-1131]”, the IC50 was more than 10 µM in test [1] and more than 1 µM in test [2].

For “Ac-PL3-Asp-Npg-B5-Asp-3COOHF-Ala-Ala-Phe-Lys*3-PyrS2-2F3MeF-BztA-GlnR*3-Val-NH2 [I-820]”, the IC50 was 3 to 10 µM in test [1] and less than 0.05 µM in test [2].

In the case of “Ac-PL3-Asp-Chg-B5-Asp-3COOHF-CyLeu-Ala-Phe-Lys*3-PyrS2-3Thi-BztA-GlnR*3-Ala-NH2 [I-736]”, the IC50 in test [1] is less than 1.5 µM; in test [2], less than 0.05 µM.

As for “Ac-PL3-Asp-Npg-B5-Asp-3COOHF-Aib-Ala-Phe-Lys*3-PyrS2-3Thi-34ClF-GlnR*3-NH2 [I-867]”, the IC50 in test [1] is less than 1.5 µM; in test [2], less than 0.05 µM.

In the case of “Ac-PL3-Asp-DipA-B5-Asp-3COOHF-Ala-Ala-Phe-Lys*3-PyrS2-3Thi-34ClF-GlnR*3-Ala-Ala-[mPEG8]-Lys-NH2 [I-1703]”, the IC50 in test [1] was 3 to 10 µM; in test [2] it was less than 0.05 µM.
